For the experiment, the target named is T1, human EP2 receptor (Homo sapiens, UniProt P43116).
T1 construct: cDNAs representing the complete open reading frames of the human EP2 and EP4 receptors; expressed in transfected cells
In words: Scatchard analysis of specific [3H]PGE2 binding in 293-S transfectants (EP2 line). The conditions noted are these: read-out: Kd for PGE2 (EP2); 293-S line stably overexpressing recombinant human EP2, approximately 338,400 receptors per cell.

The chains behind the UniProt entries cited, without tags or fusion partners. Where a name states a change or a piece, a line headed by the entry shows the natural chain unless it says otherwise.
UniProt P43116: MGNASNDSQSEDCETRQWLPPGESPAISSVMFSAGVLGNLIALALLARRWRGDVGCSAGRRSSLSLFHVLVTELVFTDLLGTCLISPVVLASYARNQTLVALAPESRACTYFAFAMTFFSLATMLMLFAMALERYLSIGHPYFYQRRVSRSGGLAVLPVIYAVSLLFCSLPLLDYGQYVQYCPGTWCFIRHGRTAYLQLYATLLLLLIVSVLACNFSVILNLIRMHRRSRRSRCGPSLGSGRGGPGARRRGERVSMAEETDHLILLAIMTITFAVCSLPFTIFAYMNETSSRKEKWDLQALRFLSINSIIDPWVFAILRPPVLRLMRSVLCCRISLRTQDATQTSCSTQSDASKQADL

Usually Kd stands for a measure of binding affinity in units of concentration. As to `CCCCC[C@H](O)/C=C/[C@H]1[C@H](O)CC(=O)[C@@H]1C/C=C\CCCC(=O)O` [PGE2, Prostaglandin E2], the Kd is 12 nM.

Values taken from patent US6376502B1, “Osteoporosis compounds” (priority 1997, dated 2002).
